pEC50: −log10 of the molar value. Read-outs that look alike come from different tables or passages of the source.
How the values were obtained:
[1] = tested on: MDCK-MDR1 cells expressing human Pgp; details: for Recover Rate / Papp, B-A mean / Papp, A-B mean: 5 µM; for Papp, B-A mean: basal to apical; for Papp, A-B mean: apical to basal
MV4;11 cells [2] = assay: cells; details: Homo sapiens, MV4-11, 24 h
22Rv1 cells [3] = assay: cells; details: Homo sapiens, 22Rv1, 72 h; for EC50: read-out: 22Rv1 Viability (72h) pEC50 (converted)
MV4;11 cells [4] = details: CellTiter-Glo, mean ± S.E., N = 3
22Rv1 cells [5] = details: CellTiter-Glo, mean ± S.E., N = 2
[6] = read-out: MV4;11 Viability (24h) pEC50

In the case of `Cc1ncsc1-c1ccc(CNC(=O)[C@@H]2C[C@@H](O)CN2C(=O)[C@@H](NC(=O)CCCCCNC(=O)Cc2ccccc2)C(C)(C)C)cc1` [Compound 3, (2S,4R)-1-((S)-3,3-Dimethyl-2-(6-(2-phenylacetamido)hexanamido)butanoyl)-4-hydroxy-N-(4-(4-methylthiazol-5-yl)benzyl)pyrrolidine-2-carboxamide], the “Recover Rate” value [1] was 100%.
With `Cc1ncsc1-c1ccc(CNC(=O)[C@@H]2C[C@@H](O)CN2C(=O)[C@@H](NC(=O)CCCCCNC(=O)C2CCCCC2)C(C)(C)C)cc1` [Compound 4, (2S,4R)-1-((S)-2-(6-(Cyclohexanecarboxamido)hexanamido)-3,3-dimethylbutanoyl)-4-hydroxy-N-(4-(4-methylthiazol-5-yl)benzyl)pyrrolidine-2-carboxamide] the “Recover Rate” value [1] was 98%.
`CCCC(=O)NCCCCCC(=O)N[C@H](C(=O)N1C[C@H](O)C[C@H]1C(=O)NCc1ccc(-c2scnc2C)cc1)C(C)(C)C` [Compound 2, (2S,4R)-1-((S)-2-(6-Butyramidohexanamido)-3,3-dimethylbutanoyl)-4-hydroxy-N-(4-(4-methylthiazol-5-yl)benzyl)pyrrolidine-2-carboxamide] was tested, and the “Recover Rate” value [1] was 100%.
`CCCCOc1ccc(-c2ccc(C(=O)NCCCCCC(=O)N[C@H](C(=O)N3C[C@H](O)C[C@H]3C(=O)NCc3ccc(-c4scnc4C)cc3)C(C)(C)C)cc2)cc1` [Compound 7, (2S,4R)-1-((S)-2-(6-(4′-Butoxy-[1,1′-biphenyl]-4-carboxamido)hexanamido)-3,3-dimethylbutanoyl)-4-hydroxy-N-(4-(4-methylthiazol-5-yl)benzyl)pyrrolidine-2-carboxamide] was tested, and the “Recover Rate” value [1] was 31%.
For `Cc1ncsc1-c1ccc(CNC(=O)[C@@H]2C[C@@H](O)CN2C(=O)[C@@H](NC(=O)COCCOCCOCCOC(=O)C[C@@H]2N=C(c3ccc(Cl)cc3)c3c(sc(C)c3C)-n3c(C)nnc32)C(C)(C)C)cc1` [Compound 25, (S)-13-((2S,4R)-4-Hydroxy-2-((4-(4-methylthiazol-5-yl)benzyl)carbamoyl)pyrrolidine-1-carbonyl)-14,14-dimethyl-11-oxo-3,6,9-trioxa-12-azapentadecyl 2-((S)-4-(4-Chlorophenyl)-2,3,9-trimethyl-6H-thieno[3,2-f][1,2,4]triazolo[4,3-a][1,4]diazepin-6-yl)acetate], the “Papp, B-A mean” value ([1]; N = 2) was “BLD”.
For `COCC(=O)NCCCCCC(=O)N[C@H](C(=O)N1C[C@H](O)C[C@H]1C(=O)NCc1ccc(-c2scnc2C)cc1)C(C)(C)C` [Compound 1, (2S,4R)-4-Hydroxy-1-((S)-2-(6-(2-methoxyacetamido)hexanamido)-3,3-dimethylbutanoyl)-N-(4-(4-methylthiazol-5-yl)benzyl)pyrrolidine-2-carboxamide], the “Recover Rate” value [1] was 108% and the “Efflux ratio B-A/A-B” value ([1]; MDCK-MDR1, 5 µM, N = 2) was 3.1.
`Cc1ncsc1-c1ccc(CNC(=O)[C@@H]2C[C@@H](O)CN2C(=O)[C@@H](NC(=O)CCOCCOCCOCCNC(=O)Cc2ccccc2)C(C)(C)C)cc1` [Compound 17, (2S,4R)-1-((S)-17-(tert-Butyl)-2,15-dioxo-1-phenyl-6,9,12-trioxa-3,16-diazaoctadecan-18-oyl)-4-hydroxy-N-(4-(4-methylthiazol-5-yl)benzyl)pyrrolidine-2-carboxamide] was tested, and the “Papp, A-B mean” value ([1]; N = 2) was “BLD”.
For `Cc1ncsc1-c1ccc(CNC(=O)[C@@H]2C[C@@H](O)CN2C(=O)[C@@H](NC(=O)CCCCCOC(=O)CC23CC4CC(CC(C4)C2)C3)C(C)(C)C)cc1` [Compound 12, 6-(((S)-1-((2S,4R)-4-Hydroxy-2-((4-(4-methylthiazol-5-yl)benzyl)carbamoyl)pyrrolidin-1-yl)-3,3-dimethyl-1-oxobutan-2-yl)amino)-6-oxohexyl 2-(adamantan-1-yl)acetate], the “Papp, A-B mean” value ([1]; N = 2) was “BLD”.
In the case of `Cc1ncsc1-c1ccc(CNC(=O)[C@@H]2C[C@@H](O)CN2C(=O)[C@@H](NC(=O)COCCOCCOCCNC(=O)C[C@@H]2N=C(c3ccc(Cl)cc3)c3c(sc(C)c3C)-n3c(C)nnc32)C(C)(C)C)cc1` [Compound 21, MZ1], the “Recover Rate” value [1] was 98%, the pEC50 (MV4;11 cells [2]; [6]) was 6.90 and the EC50 (22Rv1 cells [3]) was 501 nM.
With `Cc1ncsc1-c1ccc([C@H](C)NC(=O)[C@@H]2C[C@@H](O)CN2C(=O)[C@@H](NC(=O)COCCCOCCNC(=O)C[C@@H]2N=C(c3ccc(Cl)cc3)c3c(sc(C)c3C)-n3c(C)nnc32)C(C)(C)C)cc1` [Compound 22, ARV-771] the pEC50 (MV4;11 cells [2]; read-out: EC50 MV4;11) was 7.74, the pEC50 (MV4;11 cells [2]; [6]) was 7.70 and the EC50 (22Rv1 cells [3]) was 39.8 nM. It also gave a pEC50 (22Rv1 cells [3]; read-out: EC50 22Rv1) of 7.36.
`Cc1ncsc1-c1ccc(CNC(=O)[C@@H]2C[C@@H](O)CN2C(=O)[C@@H](NC(=O)CCOCCOCCNC(=O)Cc2ccccc2)C(C)(C)C)cc1` [Compound 16, (2S,4R)-1-((S)-14-(tert-Butyl)-2,12-dioxo-1-phenyl-6,9-dioxa-3,13-diazapentadecan-15-oyl)-4-hydroxy-N-(4-(4-methylthiazol-5-yl)benzyl)pyrrolidine-2-carboxamide] was tested, and the “Papp, A-B mean” value ([1]; N = 2) was “BLD”.
In the case of `Cc1ncsc1-c1ccc(CNC(=O)[C@@H]2C[C@H](O)CN2C(=O)[C@@H](NC(=O)COCCOCCOCCNC(=O)C[C@@H]2N=C(c3ccc(Cl)cc3)c3c(sc(C)c3C)-n3c(C)nnc32)C(C)(C)C)cc1` (relative stereo) [cis-MZ1], the “MV4;11 Viability (24h) pEC50” value (MV4;11 cells [4]) was at most 5.0 and the “22Rv1 Viability (72h) pEC50” value (22Rv1 cells [5]) was at most 5.0.
For `C[C@H]1O[C@@H](O[C@H]2[C@@H](O)C[C@H](O[C@H]3[C@@H](O)C[C@H](O[C@H]4CC[C@@]5(C)[C@H](CC[C@@H]6[C@@H]5C[C@@H](O)[C@]5(C)[C@@H](C7=CC(=O)OC7)CC[C@]65O)C4)O[C@@H]3C)O[C@@H]2C)C[C@H](O)[C@@H]1O` [Digoxin, reference compound], the “Recover Rate” value [1] was 93%.
With `Cc1ncsc1-c1ccc(CNC(=O)[C@@H]2C[C@@H](O)CN2C(=O)[C@@H](NC(=O)CCCCCNC(=O)CC23CC4CC(CC(C4)C2)C3)C(C)(C)C)cc1` [Compound 5, (2S,4R)-1-((S)-2-(6-(2-(Adamantan-1-yl)acetamido)hexanamido)-3,3-dimethylbutanoyl)-4-hydroxy-N-(4-(4-methylthiazol-5-yl)benzyl)pyrrolidine-2-carboxamide] the “Recover Rate” value [1] was 85%.
For `CCCCOc1ccc(-c2ccc(C(=O)OCCCCCC(=O)N[C@H](C(=O)N3C[C@H](O)C[C@H]3C(=O)NCc3ccc(-c4scnc4C)cc3)C(C)(C)C)cc2)cc1` [Compound 14, 6-(((S)-1-((2S,4R)-4-Hydroxy-2-((4-(4-methylthiazol-5-yl)benzyl)carbamoyl)pyrrolidin-1-yl)-3,3-dimethyl-1-oxobutan-2-yl)amino)-6-oxohexyl 4′-butoxy-[1,1′-biphenyl]-4-carboxylate], the “Recover Rate” value [1] was 15%, the “Papp, A-B mean” value ([1]; N = 2) was “BLD” and the “Papp, B-A mean” value ([1]; N = 2) was “BLD”.
